The values below are quoted from earlier work in publication PMC10050139.

The series deals with Kemptide.

Usually Kd stands for the constant that tells how readily two partners part at equilibrium. As for PKA C-subunit (from UniProt P17612), the Kd is 250 µM.
